From article PMC10543509

Amino acid sequences for entries named in this document (tags omitted). Residues count along the entry.
UniProt P00533, 668-1210 L858R limits assumed: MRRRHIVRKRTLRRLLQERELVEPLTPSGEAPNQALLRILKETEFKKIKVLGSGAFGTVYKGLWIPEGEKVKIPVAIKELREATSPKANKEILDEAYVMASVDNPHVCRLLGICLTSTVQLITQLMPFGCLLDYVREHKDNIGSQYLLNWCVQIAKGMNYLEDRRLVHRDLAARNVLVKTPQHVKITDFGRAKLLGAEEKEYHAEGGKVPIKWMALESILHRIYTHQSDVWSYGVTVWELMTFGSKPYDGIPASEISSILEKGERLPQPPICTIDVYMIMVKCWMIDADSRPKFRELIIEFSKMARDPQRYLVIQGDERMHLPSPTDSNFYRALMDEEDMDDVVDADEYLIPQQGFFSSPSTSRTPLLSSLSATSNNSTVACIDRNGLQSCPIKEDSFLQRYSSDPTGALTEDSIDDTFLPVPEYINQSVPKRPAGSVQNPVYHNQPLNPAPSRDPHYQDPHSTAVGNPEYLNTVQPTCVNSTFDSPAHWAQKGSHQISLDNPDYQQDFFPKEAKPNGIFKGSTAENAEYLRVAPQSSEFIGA

Target: EGFR [L858R] (LR) (Homo sapiens, UniProt P00533, L858R)
Conditions: read-out: LR

Question: `C=CC(=O)Nc1ccc(OC)c(Nc2cc(-c3[nH]c(CC)nc3-c3cccc(NC(=O)c4cccc5c4NC(=O)c4ccccc4N5)c3)ccn2)c1` was tested. Which KI (inactivation) did it give?
Answer: The KI (inactivation) was 610 nM.
